## Measured affinities in a library of Ab-14 light chain variants

Target peptide (SARS-CoV-2 spike, HR2 region): PDVDLGDISGINAS

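The parent was found by panning a naive human phage display library on the peptide. This is the validation round: designs drawn from the data on random variants, tested in the same kind of assay. Their group label is 14L_GP_Gibbs (GP: Gaussian process model; Gibbs: Gibbs sampling; a sequence that several methods proposed may carry one label only). AlphaSeq pools MATa yeast showing the antibodies with MATalpha yeast showing the peptide. The frequency of each diploid, read from paired DNA barcodes, reflects how well the two displayed proteins bind. Each replicate has its own calibration line, from reference interactions of the BCL2 family. There are six technical replicates.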

The variants keep the heavy chain, the linker and the frameworks of Ab-14 (scFv order VH, a 15-residue (Gly4Ser)3 linker, VL).
VH: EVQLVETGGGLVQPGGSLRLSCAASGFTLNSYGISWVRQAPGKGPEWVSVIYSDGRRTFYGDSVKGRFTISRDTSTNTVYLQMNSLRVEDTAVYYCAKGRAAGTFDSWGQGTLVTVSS
VL: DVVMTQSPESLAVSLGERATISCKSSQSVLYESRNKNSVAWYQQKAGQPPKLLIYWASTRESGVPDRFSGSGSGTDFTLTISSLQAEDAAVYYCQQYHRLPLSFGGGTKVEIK

Each variant is given by its three light chain CDRs, as the data file delimits them; those of the parent are KSSQSVLYESRNKNSVA, WASTRES, QQYHRLPLS. Numbers give log10(Kd / nM), so 0 is 1 nM and 3 is 1 µM. Smaller is tighter. The mean shown is taken over the replicates in which the pair was detected. "n.d." means that the variant was in the library but no mating with the target was seen in that replicate; the authors take this as a sign of poor binding, and no number exists. The parent sequence was in this pool as ten entries: three were never detected, three once, and four in most replicates, with averages from 0.34 to 2.37.

| CDR-L1 | CDR-L2 | CDR-L3 | log10 Kd (nM) by replicate | mean log10 Kd (nM) | empty controls |
|---|---|---|---|---|---|
| KVPQSNLYESRNANNVA | SASTRLS | QQYHRLPLS | -0.35 -0.27 -0.41 -0.51 -0.45 -0.23 | -0.37 | 0 of 18 |
| KISQSVLMESCNVNNVA | NASTRED | QQYHRLPLS | 0.56 0.56 0.09 0.23 0.30 0.63 | 0.39 | 0 of 18 |
| KLEGSHLYESRNANSVA | NASTRMS | QQYKRLPLS | -0.44 -0.66 -0.76 -0.90 -0.89 -0.89 | -0.76 | 0 of 18 |
| KLQQWVLYEGRNKNSVA | SASQRSD | QQYHRLPLS | 0.39 0.41 0.19 0.31 0.42 0.44 | 0.36 | 1 of 18 (3.33) |
| KLDQSCQYESRNKNSVA | NASTRES | QQYHRLPLS | -0.19 -0.20 -0.34 -0.34 -0.51 -0.27 | -0.31 | 0 of 18 |
| KLSCSMEYESRNKNSVA | NASTREE | QQYHRLPLS | -0.11 0.07 -0.21 -0.25 -0.04 0.03 | -0.09 | 1 of 18 (3.35) |
| MYSQSYLGEQRNANSVA | NASTREE | QQYHRLPLS | -0.26 -0.87 -0.63 -0.26 -0.43 -0.68 | -0.52 | 1 of 18 (2.08) |
| KFSQQVLYESRQKNSVA | NASQRLE | QQYHRLPLS | 0.11 0.26 -0.02 -0.16 0.08 0.13 | 0.07 | 2 of 18 (3.37) |
| KLSQSVLYEMRFKNSVA | QAVTRMS | QQYHRLPLS | 1.03 1.29 1.02 1.22 1.10 1.20 | 1.14 | 1 of 18 (3.43) |
| KLSQSELYESRNQNSVA | GASTRLE | QQYHRLPLS | -0.29 -0.38 -0.23 -0.47 -0.52 -0.18 | -0.34 | 1 of 18 (3.74) |
| KLSWSVELESRLKNSVA | NASTREW | QQYHRLPLS | 0.71 0.48 0.54 0.29 0.60 0.67 | 0.55 | 1 of 18 (2.30) |
| KLSMSVMMESRNKNSVA | SANTREE | QQYHRLPLS | 0.33 -0.06 0.25 0.27 -0.13 -0.10 | 0.09 | 0 of 18 |
| KLDGSDLYESRNKNSVA | EGSTRES | QAYHRLPLS | 0.41 0.22 0.18 0.20 0.15 0.38 | 0.26 | 1 of 18 (2.72) |
| KLEQFVEYESRNKNSVA | HASTRLS | QQYHRLPLS | -0.01 0.57 0.13 -0.04 0.04 0.20 | 0.15 | 0 of 18 |
| KLEQSTWYESRNCNSVA | NASVRES | QQYHRLPLS | 1.49 2.14 1.50 1.53 1.62 1.90 | 1.70 | 1 of 18 (2.71) |
| AVDFSHLGESRNKNSVA | EASTREQ | QQYHRLPLS | 0.07 -0.01 -0.05 -0.06 -0.18 0.15 | -0.01 | 0 of 18 |
| KWFQSVLMESMLVNSVA | NASQRED | QQYHRLPLS | 0.68 1.00 1.03 1.14 1.03 0.48 | 0.89 | 2 of 18 (2.53) |
| KVSQSNLYESRNANNVA | NGSLRES | QQYHRLPLS | -0.06 -0.13 -0.19 -0.20 -0.34 -0.14 | -0.18 | 2 of 18 (2.60) |
| KWSQSDDLESRNHNSVA | HASTRCS | QQYHRLPLS | 0.18 0.19 0.51 0.31 0.21 0.31 | 0.28 | 0 of 18 |
| KLSQSMEYEDRNKNSVA | HASTREQ | QQYHRLPLM | -0.05 -0.13 -0.40 -0.31 -0.24 -0.26 | -0.23 | 1 of 18 (3.11) |
| LWSQSDLLESRNHNSVA | DASTRCS | QQYHRLPLS | 0.47 0.49 0.35 0.49 0.27 0.59 | 0.44 | 0 of 18 |
| KISQSVWMESRNVNNVA | NASTRED | QQYHRLELS | 1.82 2.47 2.42 n.d. n.d. n.d. | 2.24 | 2 of 18 (2.41) |
| KLSQGWLYESRECNSVA | NASQREE | QQYHRLPLS | 0.78 0.93 0.41 0.38 0.51 0.73 | 0.62 | 1 of 18 (2.35) |
| KYSQSHGGESRNKNSVA | HASLREV | QQYHRLPLS | 1.17 0.76 1.01 0.83 1.10 0.89 | 0.96 | 0 of 18 |
| SLSQDALYESRNKNSVA | NASTREV | QQYHRLPLS | 0.39 -0.07 0.14 -0.24 -0.47 -0.26 | -0.08 | 1 of 18 (1.19) |
| KLSQSVWMESRNKWNVA | SASYRES | QQYHRLPLS | 0.46 0.36 0.21 0.24 0.31 0.29 | 0.31 | 1 of 18 (2.24) |
| KLQFSCLYESRDKNSVA | DASYRSS | QQYHRLPLS | 0.27 0.07 -0.39 -0.10 -0.30 -0.05 | -0.08 | 1 of 18 (1.84) |
| KVDQSVLQQSRNINSVA | EASQREE | QQYHRLPLS | 0.37 0.08 0.29 0.12 0.20 0.22 | 0.21 | 0 of 18 |
| KMSPSELYQDRNCNAVA | QASQRES | QQYHRLPLS | 0.37 0.21 0.06 0.10 0.56 0.52 | 0.30 | 0 of 18 |
| KSDFSEPGESRNKNSVA | DASTRES | QQYHRLPLS | -0.20 -0.13 -0.42 -0.30 0.25 -0.16 | -0.16 | 0 of 18 |
| KLQQSDLYGSRNKNSVA | QASTRMV | QAYHRLPLS | 0.76 0.63 0.50 0.47 0.80 0.77 | 0.66 | 0 of 18 |
| KLVMSELYESRQKNSVA | GASQREM | QQYHRLPLS | 0.30 -0.02 0.36 -0.06 0.09 0.29 | 0.16 | 0 of 18 |
| KSQQQYCYGDRNWNSVA | NASQRED | QQYHRLPLS | 0.15 0.07 -0.02 -0.15 -0.05 0.02 | 0.00 | 2 of 18 (2.93) |
| KYEMQELQEQRNKNSVA | NASTRES | QQYHRLPLS | 0.08 -0.10 -0.18 -0.14 -0.13 0.39 | -0.01 | 0 of 18 |
| KVEQLHLYESRNKNAVA | NGSTRES | QQYHRLPLS | 0.05 -0.14 -0.28 -0.31 -0.24 -0.16 | -0.18 | 0 of 18 |
| KWMQSQEYESRNKNSVA | EASTREL | QQYHRLPLS | 0.27 0.11 0.17 0.12 0.69 0.71 | 0.34 | 0 of 18 |
| KMPQSWLYESQNSNSVA | HASQRMS | QQYHRLPLS | -0.04 -0.22 -0.44 -0.28 -0.28 -0.18 | -0.24 | 1 of 18 (2.80) |
| KLSQSMPYEQRNKNSVA | NASQRES | QCYHRLPLS | 0.77 0.54 0.21 0.01 0.69 0.72 | 0.49 | 0 of 18 |
| KLSQSFLYESRNKMSVA | NADTRLE | QQYHRLPLS | 0.03 -0.23 -0.20 -0.19 -0.07 -0.15 | -0.14 | 1 of 18 (2.18) |
| KLSQGDWYQSRMDNSVA | NASTRES | QQYHRLPLS | 0.34 0.39 0.23 0.30 0.56 0.45 | 0.38 | 4 of 18 (3.20) |
| YLSQSVLYESRNKNSVA | NASTREM | QQYHRLPLM | -0.02 -0.20 -0.23 -0.40 -0.21 -0.15 | -0.20 | 3 of 18 (3.22) |
| KLQQFQEYESRWKNSVA | HASTRLS | QQYHRLPLS | 1.29 1.23 1.52 1.18 1.47 1.49 | 1.36 | 4 of 18 (2.92) |
| KMSQSVLYESRNSNAVA | QASQRMS | QQYHRLPLS | 0.50 0.57 0.72 0.66 0.59 0.68 | 0.62 | 1 of 18 (2.56) |
| KLSMSVEMMQRNPNSVA | SASTRLS | QQYHRLPLS | -0.23 -0.37 -0.46 -0.61 -0.38 -0.31 | -0.39 | 0 of 18 |
| KLSQSVWMLERNKNSVA | NASYRES | QQYHRLPLS | -0.23 -0.20 -0.25 -0.41 -0.33 -0.06 | -0.25 | 1 of 18 (2.31) |
| KLSQSMDYESRNKNSVA | EASDRLS | QDYHRLPLS | 0.25 0.22 0.22 0.22 0.23 0.53 | 0.28 | 1 of 18 (1.64) |
| KLSQQWLQQWRNKNSVA | NASTRES | QQYHRLPLS | 0.33 0.22 0.20 0.05 0.16 0.30 | 0.21 | 2 of 18 (2.59) |
| KQQSSGMMGSRNKNSVA | SASKRES | QQYHRLPLS | 0.58 0.63 1.14 0.62 0.52 1.34 | 0.80 | 0 of 18 |
| KLSQSMLYELRNLNSVA | HASQRMS | QQYHRLPLS | 0.59 1.15 0.84 0.72 0.99 0.71 | 0.83 | 1 of 18 (3.51) |
| KFSQSEDYESRNKWSVA | NASTRES | QQYHRLPLS | 0.46 0.30 0.28 0.18 0.22 0.40 | 0.31 | 1 of 18 (3.27) |

For reference, 4 entries of the list once more:

CDR-L1,CDR-L2,CDR-L3,log10 Kd (nM) by replicate,mean log10 Kd (nM),empty controls
KLDGSDLYESRNKNSVA,EGSTRES,QAYHRLPLS,0.41 0.22 0.18 0.20 0.15 0.38,0.26,1 of 18 (2.72)
AVDFSHLGESRNKNSVA,EASTREQ,QQYHRLPLS,0.07 -0.01 -0.05 -0.06 -0.18 0.15,-0.01,0 of 18
KLSQSFLYESRNKMSVA,NADTRLE,QQYHRLPLS,0.03 -0.23 -0.20 -0.19 -0.07 -0.15,-0.14,1 of 18 (2.18)
KYSQSHGGESRNKNSVA,HASLREV,QQYHRLPLS,1.17 0.76 1.01 0.83 1.10 0.89,0.96,0 of 18

Background: pairings of all light chain designs with three empty control strains gave a value in 4% of cases (median 2.64, 5th percentile 1.59). Values in that range, when seen in few replicates, are hard to tell from nonspecific mating. Also given: how often the same scFv was detected with the empty control strains, with their mean in brackets. The authors averaged sequences with at least three values out of six and counted those with two or fewer as poor binders. A sequence measured in both rounds can read differently, since the two assays cover different ranges.

Reference: Li et al. 2023, doi:10.1038/s41467-023-39022-2. File: FLAb, binding data.